## scFv variants of Ab-14 (heavy chain) against a SARS-CoV-2 spike peptide

Reference: Engelhart et al. 2022, doi:10.1038/s41597-022-01779-4. File: FLAb, binding data.

All variants were tested on one target, the spike HR2 peptide PDVDLGDISGINAS (SARS-CoV-2).

The variants keep the light chain, the linker and the frameworks of Ab-14 (scFv order VH, a 15-residue (Gly4Ser)3 linker, VL).
VH: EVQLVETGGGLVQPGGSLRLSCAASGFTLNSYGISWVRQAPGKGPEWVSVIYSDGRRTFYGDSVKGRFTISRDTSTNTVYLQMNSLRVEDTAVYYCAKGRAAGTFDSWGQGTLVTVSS
VL: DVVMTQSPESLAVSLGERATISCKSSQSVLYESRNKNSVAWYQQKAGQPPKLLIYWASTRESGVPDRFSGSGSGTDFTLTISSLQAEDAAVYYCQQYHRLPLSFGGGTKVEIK

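Variants in AAYL49 differ from the parent at up to three CDR positions; double and triple changes were sampled at random. The scFvs were displayed on barcoded MATa yeast, the peptide on MATalpha yeast. The frequency of each diploid, read from paired DNA barcodes, reflects how well the two displayed proteins bind. The ratio of observed to expected reads was calibrated, replicate by replicate, on BCL2-family standards whose Kd was known from biolayer interferometry. There are three technical replicates.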

Sequences are complete VH domains.
These are single substitutions, in order of position.
Kd is apparent (estimated from mating counts) and averaged on the log scale over replicates with a signal. Smaller is tighter.
"not detected" marks a missing value. The strain was present, yet no cells mated with the target were sequenced in any replicate, which points to weak or no binding.

VH | Kd (apparent) | detected | control signals
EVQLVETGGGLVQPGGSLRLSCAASGFTLNSNGISWVRQAPGKGPEWVSVIYSDGRRTFYGDSVKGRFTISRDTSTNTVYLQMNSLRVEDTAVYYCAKGRAAGTFDSWGQGTLVTVSS | 38 nM | 3/3 | 1/9
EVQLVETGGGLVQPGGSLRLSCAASGFTLNSMGISWVRQAPGKGPEWVSVIYSDGRRTFYGDSVKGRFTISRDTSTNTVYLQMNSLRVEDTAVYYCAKGRAAGTFDSWGQGTLVTVSS | 68 nM | 3/3 | 0/9
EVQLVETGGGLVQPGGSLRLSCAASGFTLNSQGISWVRQAPGKGPEWVSVIYSDGRRTFYGDSVKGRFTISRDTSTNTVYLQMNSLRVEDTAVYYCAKGRAAGTFDSWGQGTLVTVSS | 65 nM | 3/3 | 0/9
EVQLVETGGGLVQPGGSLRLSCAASGFTLNSFGISWVRQAPGKGPEWVSVIYSDGRRTFYGDSVKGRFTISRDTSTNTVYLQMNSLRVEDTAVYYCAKGRAAGTFDSWGQGTLVTVSS | 18 nM | 3/3 | 2/9
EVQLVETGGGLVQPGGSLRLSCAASGFTLNSKGISWVRQAPGKGPEWVSVIYSDGRRTFYGDSVKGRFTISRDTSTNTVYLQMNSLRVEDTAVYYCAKGRAAGTFDSWGQGTLVTVSS | not detected | 0/3 | 1/9
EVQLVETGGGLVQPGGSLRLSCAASGFTLNSCGISWVRQAPGKGPEWVSVIYSDGRRTFYGDSVKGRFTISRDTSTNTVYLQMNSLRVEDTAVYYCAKGRAAGTFDSWGQGTLVTVSS | 82 nM | 3/3 | 1/9
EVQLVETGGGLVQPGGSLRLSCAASGFTLNSEGISWVRQAPGKGPEWVSVIYSDGRRTFYGDSVKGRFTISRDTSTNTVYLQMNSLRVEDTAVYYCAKGRAAGTFDSWGQGTLVTVSS | 14 nM | 3/3 | 0/9
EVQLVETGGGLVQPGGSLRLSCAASGFTLNSPGISWVRQAPGKGPEWVSVIYSDGRRTFYGDSVKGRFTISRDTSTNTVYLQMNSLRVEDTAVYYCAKGRAAGTFDSWGQGTLVTVSS | not detected | 0/3 | 0/9
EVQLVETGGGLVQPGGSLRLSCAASGFTLNSYCISWVRQAPGKGPEWVSVIYSDGRRTFYGDSVKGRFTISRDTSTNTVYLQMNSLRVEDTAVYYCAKGRAAGTFDSWGQGTLVTVSS | not detected | 0/3 | 0/9
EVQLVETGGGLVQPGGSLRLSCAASGFTLNSYDISWVRQAPGKGPEWVSVIYSDGRRTFYGDSVKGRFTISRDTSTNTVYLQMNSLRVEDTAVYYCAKGRAAGTFDSWGQGTLVTVSS | 26 µM | 1/3 | 1/9
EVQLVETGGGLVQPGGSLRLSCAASGFTLNSYLISWVRQAPGKGPEWVSVIYSDGRRTFYGDSVKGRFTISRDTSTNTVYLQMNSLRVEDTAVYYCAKGRAAGTFDSWGQGTLVTVSS | 5.3 µM | 1/3 | 3/9
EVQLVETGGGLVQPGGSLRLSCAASGFTLNSYRISWVRQAPGKGPEWVSVIYSDGRRTFYGDSVKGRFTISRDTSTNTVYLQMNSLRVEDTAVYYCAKGRAAGTFDSWGQGTLVTVSS | not detected | 0/3 | 0/9
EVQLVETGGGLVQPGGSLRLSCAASGFTLNSYQISWVRQAPGKGPEWVSVIYSDGRRTFYGDSVKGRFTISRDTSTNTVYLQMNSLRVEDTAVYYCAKGRAAGTFDSWGQGTLVTVSS | 6.5 µM | 2/3 | 0/9
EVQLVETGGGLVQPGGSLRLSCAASGFTLNSYAISWVRQAPGKGPEWVSVIYSDGRRTFYGDSVKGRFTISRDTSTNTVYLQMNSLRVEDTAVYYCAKGRAAGTFDSWGQGTLVTVSS | not detected | 0/3 | 0/9
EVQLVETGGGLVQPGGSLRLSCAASGFTLNSYEISWVRQAPGKGPEWVSVIYSDGRRTFYGDSVKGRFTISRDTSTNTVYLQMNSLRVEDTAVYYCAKGRAAGTFDSWGQGTLVTVSS | not detected | 0/3 | 0/9
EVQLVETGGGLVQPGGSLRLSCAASGFTLNSYFISWVRQAPGKGPEWVSVIYSDGRRTFYGDSVKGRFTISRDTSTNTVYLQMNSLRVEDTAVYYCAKGRAAGTFDSWGQGTLVTVSS | not detected | 0/3 | 1/9
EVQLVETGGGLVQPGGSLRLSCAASGFTLNSYIISWVRQAPGKGPEWVSVIYSDGRRTFYGDSVKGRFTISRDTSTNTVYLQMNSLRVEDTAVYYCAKGRAAGTFDSWGQGTLVTVSS | not detected | 0/3 | 1/9
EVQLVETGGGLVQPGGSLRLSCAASGFTLNSYMISWVRQAPGKGPEWVSVIYSDGRRTFYGDSVKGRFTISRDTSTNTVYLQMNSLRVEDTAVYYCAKGRAAGTFDSWGQGTLVTVSS | not detected | 0/3 | 1/9
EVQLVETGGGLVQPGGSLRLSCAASGFTLNSYKISWVRQAPGKGPEWVSVIYSDGRRTFYGDSVKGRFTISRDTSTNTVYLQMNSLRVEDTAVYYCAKGRAAGTFDSWGQGTLVTVSS | not detected | 0/3 | 2/9
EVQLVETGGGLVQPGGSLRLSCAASGFTLNSYNISWVRQAPGKGPEWVSVIYSDGRRTFYGDSVKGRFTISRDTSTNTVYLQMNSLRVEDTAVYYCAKGRAAGTFDSWGQGTLVTVSS | not detected | 0/3 | 0/9
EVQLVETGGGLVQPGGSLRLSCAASGFTLNSYHISWVRQAPGKGPEWVSVIYSDGRRTFYGDSVKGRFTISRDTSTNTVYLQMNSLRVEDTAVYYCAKGRAAGTFDSWGQGTLVTVSS | not detected | 0/3 | 0/9
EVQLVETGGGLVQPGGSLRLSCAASGFTLNSYWISWVRQAPGKGPEWVSVIYSDGRRTFYGDSVKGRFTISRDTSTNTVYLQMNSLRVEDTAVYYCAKGRAAGTFDSWGQGTLVTVSS | 6.8 µM | 3/3 | 3/9

The 2 strongest on average among those seen in every replicate, once more:

{"VH": "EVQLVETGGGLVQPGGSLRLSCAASGFTLNSEGISWVRQAPGKGPEWVSVIYSDGRRTFYGDSVKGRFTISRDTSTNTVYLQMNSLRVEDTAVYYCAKGRAAGTFDSWGQGTLVTVSS", "Kd (apparent)": "14 nM", "detected": "3/3", "control signals": "0/9"}
{"VH": "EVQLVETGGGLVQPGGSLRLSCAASGFTLNSFGISWVRQAPGKGPEWVSVIYSDGRRTFYGDSVKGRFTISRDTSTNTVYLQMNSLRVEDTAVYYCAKGRAAGTFDSWGQGTLVTVSS", "Kd (apparent)": "18 nM", "detected": "3/3", "control signals": "2/9"}

Empty control strains, which show no peptide, gave a signal in 15% of pairings with library AAYL49; the median was 11 µM and 95% of these signals were weaker than 680 nM. No background was subtracted. Also given: how often the same scFv was detected with the empty control strains.